Assay results reported in US12037361B2, “Methods for treating multidrug resistant breast cancer” (THE HONG KONG POLYTECHNIC UNIVERSITY, priority 2021, dated 2024).

Test system: MCF7 human breast cancer xenograft
Assay: In vivo efficacy study in MCF7 breast cancer xenograft model
Conditions: i.v. once every 2 days, 10 injections, DOX 1.2 mg/kg, DRI-TAT-SP 25 mg/kg
Description: Data obtained are analyzed to evaluate treatment outcomes. Tumor doubling time is calculated using tumor volumes obtained from the end of experiment versus the tumor volumes on the first day of treatment. Tumor inhibition (%) is calculated using the tumor volumes obtained from the end of experiment. Corresponding equations of determining tumor inhibition (T/C) and tumor doubling time (Td) are provided as follows:
(Q) In Vivo Efficacy Study of DRI-TAT-SP Combined with DOX in Treating MCF7 Breast Cancer Xenograft Model:
Six- to eight-week-old female Balb/c nude mice were maintained under specific pathogen-free conditions prior to in vivo efficacy study. Each animal was implanted with a piece of […] pellet 0.72 mg, 60-day release. (Cat No. SE-121, Innovative Research of America, Sarasota, FL). Four days later, the nude mice were inserted at the both flanks with a sesame sized (around 10 mm^3) MCF-7 tumor piece originated from a tumor bulk. […] Tumor volume was measured using digital caliper once every 4 days. Estimated tumor volume (mm^3) was calculated as ½×length (mm)×width (mm)^2. The mouse body weights were recorded once every two days. The tumor doubling time (Td) was calculated as t×log 2/log(Vf/V0), where t, Vf and V0 stand for interval time, percentage change of tumor volume on final day and percentage change of tumor volume on initial day.

COc1cccc2c1C(=O)c1c(O)c3c(c(O)c1C2=O)C[C@@](O)(C(=O)CO)C[C@@H]3O[C@H]1C[C@H](N)[C@H](O)[C@H](C)O1 [Doxorubicin, reference compound]
Tumor doubling time: 14.8 days
